Target: T1, Dihydroorotate dehydrogenase (Plasmodium falciparum, UniProt Q54A96)
T1 sequence (Q54A96 whole entry): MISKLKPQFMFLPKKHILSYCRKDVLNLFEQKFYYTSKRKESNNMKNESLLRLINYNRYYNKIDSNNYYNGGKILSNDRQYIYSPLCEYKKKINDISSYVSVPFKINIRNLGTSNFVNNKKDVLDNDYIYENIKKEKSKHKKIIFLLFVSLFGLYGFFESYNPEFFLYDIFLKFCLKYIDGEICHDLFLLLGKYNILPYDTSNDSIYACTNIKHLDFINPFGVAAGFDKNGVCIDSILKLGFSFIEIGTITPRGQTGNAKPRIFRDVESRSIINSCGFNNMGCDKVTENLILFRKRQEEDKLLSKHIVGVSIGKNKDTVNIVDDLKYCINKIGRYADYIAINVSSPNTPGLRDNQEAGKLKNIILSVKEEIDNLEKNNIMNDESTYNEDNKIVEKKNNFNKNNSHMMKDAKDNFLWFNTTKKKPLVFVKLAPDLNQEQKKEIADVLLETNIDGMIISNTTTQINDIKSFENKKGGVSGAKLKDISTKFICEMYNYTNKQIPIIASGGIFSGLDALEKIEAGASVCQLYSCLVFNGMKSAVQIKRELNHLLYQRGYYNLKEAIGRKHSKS
Assay: Inhibition of His6-tagged recombinant Plasmodium falciparum dihydroorotate dehydrogenase expressed in Escherichia coli using L-dihydroorotate as substrate after 5 to 10 mins by DCIP dye-based assay

SMILES	IC50 [µM]
C=Cc1ccc(Nc2cc(C)nc3ncnn23)cc1	0.8
Cc1cc(Nc2ccc(C(C)(C)C#N)cc2)n2ncnc2n1	1

From ChEMBL document CHEMBL1781999, “Lead optimization of aryl and aralkyl amine-based triazolopyrimidine inhibitors of Plasmodium falciparum dihydroorotate dehydrogenase with antimalarial activity in mice” (J Med Chem, 2011)
